This is an account of results in patent publication US20040072801A1, “Sterols bearing pendant allosteric effectors of hemoglobin, and uses thereof” (priority 2002, published 2004).

Like-named read-outs stand apart in the source and are kept apart here.

One data set has as its system mice RBC. Type of data set: in vivo. Conditions: ip at 30, 45 and 60 mM. How it is done: KF16 was also administered at 3 concentrations (30, 45 and 60 mM) by intraperitonal (ip) injection. […] Three hours after injection, samples of blood were taken for P50 measurements. […] We have observed the shift of the P50 values in the blood from the injected animals over 3 days.
The P50 shift of RBC is similar to iv injections at concentrations of 30 and 45 mM. After ip injections with KF16.4 there is a shift of 12 to 18% following the increasing concentration of the effector (30-60 mM).

For the substance “Inositol hexaphosphate-cholesteroloxycarbonyl, hepta N,N-dimethyl-cyclohexylammonium salt [KF16]”, the “tolerability, intraperitonal injection” value was “tolerated well in all concentrations” in the data set with mice RBC and “non toxic” in the data set on mice RBC (listed as KF 16). Also, the “tolerability, direct injection into the vein” value was “non-toxic” with C57B1/6 mice (iv 200 μL at 30, 45 and 60 mM, observed 2 hours); “non-toxic” in the data set on C57B1/6 mice (iv at 30 and 45 mM). The solubility in water entry in “Solubility in water” is listed as “soluble in water”.
